Laboratory results reported in publication PMC8576328, “Broad-Spectrum Inhibitor of Bacterial Polyphosphate Homeostasis Attenuates Virulence Factors and Helps Reveal Novel Physiology of Klebsiella pneumoniae and Acinetobacter baumannii” (Frontiers in Microbiology, 2021).

System: Nc1ncnc2c1ncn2[C@@H]1O[C@H](COP(=O)(O)OP(=O)(O)OP(=O)(O)O)[C@@H](O)[C@H]1O
Experiment: purified protein
Conditions: varied ATP, 4 mM MgSO4, pH 7.5, 37 C, no gallein, substrate inhibition model

K. pneumoniae PPK1 (KP) (Klebsiella pneumoniae subsp. pneumoniae MGH 78578)
Km: 256 ± 31 µM
